{"source": "patent US20250177353A1", "about": "(priority 2021, published 2025)", "key": {"[1]": {"experiment": "MAD study: resting energy expenditure (REE) / RMR"}, "[2]": {"experiment": "Nonclinical toxicology program (acute, repeat-dose, genotoxicity), overall findings", "settings": "nonclinical toxicity studies"}}, "data": [{"smiles": "Cn1c(COc2ccc([N+](=O)[O-])cc2[N+](=O)[O-])cnc1[N+](=O)[O-]", "values": [{"measurement": "increase in RMR", "setting": "[1]; 200 mg daily oral, by Day 7, sustained to day 15, MAD cohort 1", "result": "approximately 10%"}, {"measurement": "anticipated increase in RMR", "setting": "[1]; 400 mg QD for 14 days", "result": 20, "unit": "%"}, {"measurement": "anticipated increase in RMR", "setting": "[1]; 550 mg QD projected dose", "result": 30, "unit": "%"}, {"measurement": "increase in resting energy expenditure (REE) compared to placebo", "setting": "[1]; MAD QD dosing period (FIG. 7)", "result": "about 29%"}, {"measurement": "deaths or effects on body weight, food consumption, body temperature, ophthalmology, electrocardiograms, hematology, clinical chemistry, urinalysis", "setting": "[2]", "result": "no Compound 1-related deaths or effects"}]}]}
